# What was measured:
# Assay type in all cases: cell-based
# SK-BR-3 cells [1] = experiment: CCK cell viability (proliferation-toxicity) of SK-BR-3 cells; conditions: 4 μM HSA, pre-experiment
# Procedure: SK-BR-3 was used as a model system for studying breast cancer cell lines. In a Corning 96-well plate, 1×10^4 cells were incubated with 100 μL of RPMI-1640 medium (containing 10% fetal bovine serum (FBS) and 1% penicillin-streptomycin) per well and the 96-well plate was pre-incubated under 37° C. and 5% CO2 for 24 hours. 10 μL solutions of poly peptide-HSA complex in PBS at various concentrations were added to the plate so that the final concentrations of the polypeptides were 10 nM, 100 nM, 200 nM, 400 nM, 1 μM, 2 μM, and 4 μM respectively. A blank control was obtained by adding only 10 μL of PBS solution. The culture plate was incubated in an incubator for 48 h, and 10 μL of CCK solution (Beijing FanboBiochemicals Co., Ltd.) was added to each well. The culture plate was incubated for 2 h in the incubator and the absorbance values (OD values) at 450 nm wavelength were measured by a continuous-spectrum multifunctional microplate reader (Tecan infinite M200, TECAN, Switzerland) to calculate cell viability (cell viability=OD450 nm (polypeptide-HSA complex)/(OD450 nm (blank control)×100%).
# MDA-MB-231 cells [2] = experiment: CCK cell viability (proliferation-toxicity) of MDA-MB-231 cells; conditions: 4 μM HSA, pre-experiment
# Procedure: MDA-MB-231 was used as a model system for studying breast cancer cell lines. In a Corning 96-well plate, 1×10^4 cells were incubated with 100 μL of DMEM medium (containing 10% fetal bovine serum (FBS) and 1% penicillin-streptomycin) per well and the 96-well plate was pre-incubated under 37° C. and 5% CO2 for 24 hours. 10 μL of polypeptide-HSA complex in PBS at various concentrations were added to the plate so that the final concentrations of the polypeptides were 10 nM, 100 nM, 400 nM, 1 μM, and 4 μM respectively. A blank control was obtained by adding only 10 μL of PBS solution. The culture plates were incubated in an incubator for 48 h, and 10 μL of CCK solution was added to each well. The culture plates were incubated for 2 h in the incubator and the absorbance values (OD values) at 450 nm wavelength were measured by a continuous-spectrum multifunctional microplate reader to calculate cell viability.
# SK-BR-3 cells [3] = experiment: Scratch assay, lateral migration of SK-BR-3 cells induced by CXCL12; conditions: 1000 nM of HSA, pre-experiment
# Procedure: In a Corning 6-well plate, 40×10^4 SK-BR-3 cells were incubated with 2 mL of RPMI-1640 medium (containing 10% fetal bovine serum (FBS) and 1% penicillin-streptomycin) per well. The 6-well plate was pre-incubated for 24 h in a 37° C., 5% CO2 incubator. When SK-BR-3 cells were grown to near 90% confluency, 10 μL sterile pipette tips were used to scratch along a straight line in the wells of the plate. Then the cells were gently washed three times with PBS solution. Afterwards, RPMI-1640 medium containing 5% FBS was added to each well and meanwhile the CXCL12 aqueous solution was added to induce the cells, so that the molecule concentration of CXCL12 in each well was 100 ng/mL. […] The migration of the cells and the change of the scratch width L at 0 h and 24 h after scratching were observed by a microscope with 10×lens (IX71, OLYMPUS, Japan) and the cell migration rate (cell migration rate=polypeptide-HSA complex cell migration rate (L0 h−L24 h/L0 h)/blank control cell migration rate (L0 h−L24 h/L0 h)×100%) was calculated.
# SK-BR-3 cells [4] = experiment: Transwell assay, longitudinal migration of SK-BR-3 cells induced by CXCL12; conditions: 1000 nM of HSA, pre-experiment
# Procedure: 800 μL of RPMI-1640 medium containing 5% FBS was added to the lower chamber (Corning 24-well plate), along with adding the aqueous solution of CXCL12 (100 ng/mL) to induce the cells. The culture plate was incubated in a 37° C., 5% CO2 incubator for 24 h. The trans well chamber was removed and the non-migratory cells on the surface of the upper chamber of the filter membrane were carefully wiped with cotton swabs. […] Five fields in view were taken from each chamber membrane according to the orientation in the upper, lower, left, right and middle directions. The number N of migrated cells in each field of view was counted and the cell migration rate (migration rate=Npolypeptide-HSA complex/Nblank control×100%) was calculated based on the averaged values. Indirectly, the crystal violet was eluted from the stained chamber membrane with 800 μL of 33% acetic acid solution, and 100 μL of the eluate was assayed for OD value at 570 nm using a microplate reader.
# MDA-MB-231 cells [5] = experiment: Scratch assay, lateral migration of MDA-MB-231 cells induced by CXCL12; conditions: 1000 nM of HSA, pre-experiment
# Procedure: In a Corning 6-well plate, 20×10^4 cells were incubated with 2 mL of DMEM medium (containing 10% fetal bovine serum (FBS) and 1% penicillin-streptomycin) per well. The 6-well plate was pre-incubated for 24 h in a 37° C., 5% CO2 incubator. When MDA-MB-231 cells were grown to near 80% confluency, 10 μL sterile pipette tips were used to scratch along a straight line in the wells of the plate. Then the cells were gently washed three times with PBS solution. Afterwards, the serum-free DMEM medium was added to each well and meanwhile the CXCL12 aqueous solution was added to induce the cells, so that the concentration of CXCL12 in each well was 100 ng/mL. Then, the solution of polypeptide-HSA complex in PBS was added so that the final concentration of the polypeptide was 10 nM, 100 nM, and 1000 nM respectively, and PBS solution was added for use as a blank control.
# MDA-MB-231 cells [6] = experiment: Transwell assay, longitudinal migration of MDA-MB-231 cells induced by CXCL12; conditions: 1000 nM of HSA, pre-experiment
# Procedure: 800 μL of the serum-free DMEM medium was added to the lower chamber, along with adding an aqueous solution of CXCL12 (100 ng/mL) to induce the cells. […] The trans well chamber was removed and the non-migratory cells on the surface of the upper chamber of the filter membrane were carefully wiped with cotton swabs. […] Five fields in view were taken for each chamber membrane according to the orientation in the upper, lower, left, right and middle directions. The number of migrated cells in each field of view was counted and the cell migration rate was calculated based on the averaged values. Indirectly, the crystal violet was eluted from the stained chamber membrane with 800 μL of 33% acetic acid solution, and 100 μL of the eluate was assayed for OD value at 570 nm using a microplate reader.
# HL-60 cells = experiment: Transwell assay, longitudinal migration of HL-60 cells induced by CXCL12 (polypeptide-HSA complexes); conditions: 1000 nM of HSA, pre-experiment
# Procedure: The culture plates were incubated in a 37° C., 5% CO2 incubator for 24 h.
substance,measurement,setting,value
human serum albumin [HSA],cell viability of SK-BR-3 cells versus cells alone,SK-BR-3 cells [1],not significantly different
same,cell viability of MDA-MB-231 cells versus cells alone,MDA-MB-231 cells [2],not significantly different
same,migration rate of SK-BR-3 cells versus blank control (lateral),SK-BR-3 cells [3],not significantly different
same,migration ability of SK-BR-3 cells versus blank control (longitudinal),SK-BR-3 cells [4],no significant difference
same,migration rate of MDA-MB-231 cells versus blank control (lateral),MDA-MB-231 cells [5],not significantly different
same,migration rate of MDA-MB-231 cells versus blank control (longitudinal),MDA-MB-231 cells [6],not significantly different
same,migration rate of HL-60 cells versus blank control (longitudinal),HL-60 cells,not significantly different

# — US20170360897A1, “POLYPEPTIDE AND POLYPEPTIDE COMPLEX FOR SUPPRESSING TUMOR METASTASIS AND TREATING LEUKEMIA AS WELL AS PREPARATION METHOD THEREFOR AND APPLICATION THEREOF” (National Center for Nanoscience and Technology, China, priority 2014, published 2017)
